Patent US20020192736A1, “Assay of peroxidase activity” (Pierce Chemical Company, priority 2001, published 2002)

Columns and labels:
[1] = target: T1, B-HRP (Armoracia rusticana, UniProt P00433); assay: Dot blot assay with B-HRP, film densitometry; settings: […] Azine Enhancer, 5 mM Sodium Luminol
T1 sequence (P00433 31-338): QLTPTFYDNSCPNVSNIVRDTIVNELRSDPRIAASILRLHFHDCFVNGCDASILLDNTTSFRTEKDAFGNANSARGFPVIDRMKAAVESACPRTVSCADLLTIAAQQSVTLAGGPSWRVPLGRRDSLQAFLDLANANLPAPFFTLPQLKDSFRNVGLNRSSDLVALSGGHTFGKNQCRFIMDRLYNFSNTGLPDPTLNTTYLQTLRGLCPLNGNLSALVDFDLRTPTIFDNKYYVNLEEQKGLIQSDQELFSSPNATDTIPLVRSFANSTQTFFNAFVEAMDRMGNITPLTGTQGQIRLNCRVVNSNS

[2] = target: T2, Biotinylated horseradish peroxidase (B-HRP) (Armoracia rusticana, UniProt P00433); assay: Microtiter plate luminometer assay of peroxidase chemiluminescence (RLU)
T2 sequence (P00433 31-338): T1 sequence (P00433 31-338)

[3] = […] Azine Enhancer, 5 mM Sodium Luminol
[4] = 25 pg of the B-HRP, enhancer concentrations as in row ([…] 1c; 52 μM 1c; 52 μM 1b; 13.5 μM 3)

Molecule	Net Relative Intensity at 15.6 pg B-HRP [1]	Net RLU at 0.98 pg B-HRP [2, 3]	Net RLU at 3.9 pg B-HRP [2, 3]	Net RLU at 15.6 pg B-HRP [2, 3]	Net RLU at 62.5 pg B-HRP [2, 3]	Net RLU at 250 pg B-HRP [2, 3]	also measured
2-chloro-10 (3 trimethyl amino propyl)-phenothiazonan bromide [Azine Enhancer 1d]	0	–	–	–	–	–	Net RLU at 0.98 pg B-HRP [2]: 0.00 RLU; Net RLU at 3.9 pg B-HRP [2]: 0.00 RLU; Net RLU at 15.6 pg B-HRP [2]: 0.00 RLU; Net RLU at 62.5 pg B-HRP [2]: 0.00 RLU; Net RLU at 250 pg B-HRP [2]: 0.19 RLU
CN1c2ccccc2Sc2ccccc21 [Azine Enhancer 1b, N-Methylphenothiazine]	–	–	–	–	–	–	RLU 1 minute [2]: 0.06 RLU; RLU 5 minutes [2]: 0.13 RLU; RLU 15 minutes [2]: 0.32 RLU; RLU 30 minutes [2]: 0.76 RLU; RLU 1 hour [2]: 0.65 RLU; RLU 2 hours [2]: 0.04 RLU; Relative Intensity 250 pg B-HRP [2]: 16.30
O=S(=O)([O-])CCCCN1c2ccccc2Sc2ccccc21.[Na+] [Azine Enhancer 1f]	54.12	1.30 RLU	6.50 RLU	33.80 RLU	181.00 RLU	899.10 RLU	–
CC(CN1c2ccccc2Sc2ccccc21)C[N+](C)(C)C.[Cl-] (centres unmarked) [Azine Enhancer 1g]	0	0.00 RLU	0.00 RLU	0.00 RLU	0.00 RLU	0.35 RLU	–
O=S(=O)([O-])CCCCN1c2ccccc2Sc2ccc(Cl)cc21.[Na+] [Azine Enhancer 1h]	16.09	0.08 RLU	0.17 RLU	0.19 RLU	1.50 RLU	99.20 RLU	–
O=C1C=CC(=Nc2ccc(O)cc2)C=C1 [Phenolic Enhancer 3, Phenolindophenol/indophenol]	–	–	–	–	–	–	RLU 1 minute [2, 4]: 0.001 RLU; RLU 5 minutes [2, 4]: 0.002 RLU; RLU 15 minutes [2, 4]: 0.001 RLU; RLU 30 minutes [2, 4]: 0.002 RLU; RLU 1 hour [2, 4]: 0.002 RLU; RLU 2 hours [2, 4]: 0.002 RLU; Relative Intensity 250 pg B-HRP ([2]; after 5 minutes, enhancer concentrations as in row ([…] 1c; 52 μM 1c; 52 μM 1b; 13.5 μM 3)): 0.328

Like-named read-outs stand apart in the source and are kept apart here.
